In patent US20190298674A1 (Ovid Therapeutics, Inc., priority 2018, published 2019):

Experiment: plasma pharmacokinetics
Conditions: over a range of 5 mg-500 mg

Cmax dose proportionality: increases in a dose proportional manner
Structure (SMILES): N[C@H]1C[C@@H](C(=O)O)CC1=C(F)F
